Among the data in ChEMBL document CHEMBL4627396 (J Med Chem, 2020) are Activity values, retold here.

By UniProt entry, the sequences of proteins in these tests, tags left out. Where a name states a change or a piece, a line headed by the entry shows the natural chain unless it says otherwise.
UniProt O60331: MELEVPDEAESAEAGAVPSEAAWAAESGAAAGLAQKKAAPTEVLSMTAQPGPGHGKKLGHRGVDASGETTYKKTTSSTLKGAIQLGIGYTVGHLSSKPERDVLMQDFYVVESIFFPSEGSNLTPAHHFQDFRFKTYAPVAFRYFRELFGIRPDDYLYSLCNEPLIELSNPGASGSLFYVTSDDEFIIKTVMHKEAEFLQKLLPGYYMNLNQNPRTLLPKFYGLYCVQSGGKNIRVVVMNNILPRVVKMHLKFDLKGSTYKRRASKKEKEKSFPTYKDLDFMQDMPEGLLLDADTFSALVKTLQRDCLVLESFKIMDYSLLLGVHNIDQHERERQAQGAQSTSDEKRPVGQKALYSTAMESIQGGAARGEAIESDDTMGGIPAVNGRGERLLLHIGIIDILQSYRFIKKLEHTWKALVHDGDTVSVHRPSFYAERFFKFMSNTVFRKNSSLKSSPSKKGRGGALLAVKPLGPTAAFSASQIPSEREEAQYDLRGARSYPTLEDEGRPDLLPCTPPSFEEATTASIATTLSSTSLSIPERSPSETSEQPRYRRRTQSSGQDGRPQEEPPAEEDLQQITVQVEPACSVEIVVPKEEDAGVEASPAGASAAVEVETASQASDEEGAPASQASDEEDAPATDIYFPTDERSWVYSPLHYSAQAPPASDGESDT

The test addresses Phosphatidylinositol 4-phosphate 5-kinase type-1 gamma (Homo sapiens, UniProt O60331). The test can be described thus: Binding affinity to wild-type human partial length PIP5K1C (M1 to T668 residues) expressed in mammalian expression system assessed as residual binding level at 1 uM by Kinomescan method relative to control.

On to `NC(=O)c1cnc(N2CCC[C@H](N)C2)nc1Nc1cccc(C(F)(F)F)c1`, for which the Activity was determined as 8.1%.
